This is an account of results in paper PMC10354048 (Communications Chemistry, 2023).

Amino acid sequences for entries named in this document (tags omitted). Residues count along the entry.
UniProt P06873, 106-384: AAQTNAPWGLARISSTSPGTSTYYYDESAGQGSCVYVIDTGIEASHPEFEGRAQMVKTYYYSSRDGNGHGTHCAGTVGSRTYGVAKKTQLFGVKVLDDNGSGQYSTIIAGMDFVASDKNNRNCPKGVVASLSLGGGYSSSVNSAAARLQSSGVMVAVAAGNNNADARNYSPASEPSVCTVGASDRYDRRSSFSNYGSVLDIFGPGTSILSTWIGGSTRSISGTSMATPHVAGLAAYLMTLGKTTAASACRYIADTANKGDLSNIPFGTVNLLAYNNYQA

One data set concerns the target proteinase K (Parengyodontium album, UniProt P06873). The note with it: 1:10 protease to bacteriocin, 50 mM sodium phosphate pH 7.4, 5 mM CaCl2, 100 mM NaCl, 37 °C, 24 h, HPLC UV 210 nm.
For a further data set, the system named is trypsin or chymotrypsin. The note with it: 1:10 molar ratio bacteriocin:protease, tris buffer 50 mM pH 8.0, 25 °C, 5 and 24 h, HPLC UV 210 nm.
The target of the next data set is T1, trypsin (Bos taurus, UniProt P00760).
T1 construct: gene PRSS1
T1 sequence (P00760 24-246): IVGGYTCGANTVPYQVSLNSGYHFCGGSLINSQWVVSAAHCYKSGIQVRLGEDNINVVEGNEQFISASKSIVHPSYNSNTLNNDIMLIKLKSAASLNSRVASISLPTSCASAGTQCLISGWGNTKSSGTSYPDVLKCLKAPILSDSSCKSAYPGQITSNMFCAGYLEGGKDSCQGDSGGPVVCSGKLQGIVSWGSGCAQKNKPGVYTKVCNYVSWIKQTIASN
As to conditions: enzyme:substrate ratio 10:1, tris buffer 50 mM pH 8.0, 25 °C, 5 and 24 h, HPLC UV 210 nm.

A further data set deals with chymotrypsin (Bos taurus, UniProt P00766). As to conditions: enzyme:substrate ratio 1:20 to 10:1, tris buffer 50 mM pH 8.0, 25 °C, 5 and 24 h, HPLC UV 210 nm.

With `CC[C@H](C)[C@H](NC(=O)[C@H](Cc1ccc(O)cc1)NC(=O)[C@H](CCCCN)NC(=O)[C@H](CC(C)C)NC(=O)[C@H](Cc1ccccc1)NC(=O)[C@H](CC(N)=O)NC(=O)[C@H](CC(C)C)NC(=O)[C@H](Cc1c[nH]c2ccccc12)NC(=O)[C@H](CO)NC(=O)[C@@H](N)CCSC)C(=O)N[C@@H](C)C(=O)N[C@@H](CCCCN)C(=O)N[C@@H](Cc1ccc(O)cc1)C(=O)NCC(=O)N[C@@H](CCCCN)C(=O)N[C@@H](CCCCN)C(=O)N[C@@H](C)C(=O)N[C@H](C(=O)N[C@@H](CO)C(=O)N[C@@H](C)C(=O)N[C@@H](C)C(=O)N[C@@H](CC(C)C)C(=O)N[C@@H](CCCCN)C(=O)N[C@@H](Cc1ccc(O)cc1)C(=O)N[C@@H](CCCCN)C(=O)NCC(=O)N[C@@H](CCCCN)C(=O)N[C@H](C(=O)N[C@@H](CC(C)C)C(=O)N[C@@H](CCC(=O)O)C(=O)N[C@@H](Cc1c[nH]c2ccccc12)C(=O)N[C@@H](CC(C)C)C(=O)N[C@@H](CC(N)=O)C(=O)N[C@H](C(=O)NCC(=O)N1CCC[C@H]1C(=O)N[C@H](C(=O)N[C@@H](CC(C)C)C(=O)N[C@@H](CCC(=O)O)C(=O)N[C@@H](Cc1c[nH]c2ccccc12)C(=O)N[C@H](C(=O)N[C@@H](Cc1c[nH]c2ccccc12)C(=O)N[C@@H](CCC(N)=O)C(=O)N[C@@H](CCCCN)C(=O)N[C@@H](CC(C)C)C(=O)N[C@@H](CCCCN)C(=O)N[C@@H](CCCCN)C(=O)N[C@H](C(=O)N[C@@H](C)C(=O)NCC(=O)N[C@@H](CC(C)C)C(N)=O)[C@@H](C)CC)C(C)C)[C@@H](C)O)C(C)C)C(C)C)C(C)C` [L-W22L, L-aureocin A53 W22L (Met^1-Leu^51)], the “Proteolytic stability on incubation with proteinase K” value on proteinase K was “fully digested”.
On to `CC[C@@H](C)[C@@H](NC(=O)CNC(=O)[C@@H](CC(C)C)NC(=O)[C@H](NC(=O)[C@@H](CCC(N)=O)NC(=O)[C@@H](CCCCN)NC(=O)[C@H](NC(=O)[C@@H](CCCCN)NC(=O)[C@@H](CO)NC(=O)[C@H](NC(=O)[C@H](NC(=O)[C@@H](Cc1c[nH]c2ccccc12)NC(=O)[C@@H](CC(=O)O)NC(=O)[C@H](NC(=O)[C@@H](C)NC(=O)[C@@H](CCC(N)=O)NC(=O)CNC(=O)[C@@H](C)NC(=O)[C@@H](CC(N)=O)NC(=O)[C@@H](CC(C)C)NC(=O)[C@@H](Cc1c[nH]c2ccccc12)NC(=O)[C@@H](CC(=O)O)NC(=O)[C@@H](CC(C)C)NC(=O)[C@H](NC(=O)[C@@H](CCCCN)NC(=O)CNC(=O)[C@@H](CCCCN)NC(=O)[C@@H](CC(N)=O)NC(=O)[C@@H](C)NC(=O)[C@@H](Cc1c[nH]c2ccccc12)NC(=O)[C@@H](C)NC(=O)[C@@H](Cc1c[nH]c2ccccc12)NC(=O)[C@@H](CCC(N)=O)NC(=O)[C@H](NC(=O)[C@@H](C)NC(=O)[C@@H](CCCCN)NC(=O)[C@@H](CO)NC(=O)CNC(=O)[C@@H](Cc1ccc(O)cc1)NC(=O)[C@@H](CCCCN)NC(=O)[C@@H](C)NC(=O)[C@@H](CC(C)C)NC(=O)[C@@H](CC(C)C)NC(=O)[C@@H](CCC(N)=O)NC(=O)[C@H](NC(=O)[C@H](NC(=O)[C@@H](CCCCN)NC(=O)[C@@H](CC(C)C)NC(=O)[C@@H](Cc1ccccc1)NC(=O)CNC(=O)[C@@H](C)NC(=O)[C@H](N)CCSC)C(C)C)C(C)C)C(C)C)[C@H](C)CC)[C@H](C)CC)C(C)C)C(C)C)[C@H](C)CC)[C@H](C)CC)C(=O)N[C@H](CCCCN)C(N)=O` [D-LnqQ, D-lacticin Q (Met^1-Lys^53)], for which the “Proteolytic stability of bacteriocin enantiomers (all protease conditions tested)” value with trypsin or chymotrypsin was “resistant to proteolytic degradation”.
The same measure, in the same setting: the entry for `CC[C@@H](C)[C@@H](NC(=O)[C@@H](Cc1ccc(O)cc1)NC(=O)[C@@H](CCCCN)NC(=O)[C@@H](CC(C)C)NC(=O)[C@@H](Cc1ccccc1)NC(=O)[C@@H](CC(N)=O)NC(=O)[C@@H](CC(C)C)NC(=O)[C@@H](Cc1c[nH]c2ccccc12)NC(=O)[C@@H](CO)NC(=O)[C@H](N)CCSC)C(=O)N[C@H](C)C(=O)N[C@H](CCCCN)C(=O)N[C@H](Cc1ccc(O)cc1)C(=O)NCC(=O)N[C@H](CCCCN)C(=O)N[C@H](CCCCN)C(=O)N[C@H](C)C(=O)N[C@@H](C(=O)N[C@H](CO)C(=O)N[C@H](C)C(=O)N[C@H](C)C(=O)N[C@H](Cc1c[nH]c2ccccc12)C(=O)N[C@H](CCCCN)C(=O)N[C@H](Cc1ccc(O)cc1)C(=O)N[C@H](CCCCN)C(=O)NCC(=O)N[C@H](CCCCN)C(=O)N[C@@H](C(=O)N[C@H](CC(C)C)C(=O)N[C@H](CCC(=O)O)C(=O)N[C@H](Cc1c[nH]c2ccccc12)C(=O)N[C@H](CC(C)C)C(=O)N[C@H](CC(N)=O)C(=O)N[C@@H](C(=O)NCC(=O)N1CCC[C@@H]1C(=O)N[C@@H](C(=O)N[C@H](CC(C)C)C(=O)N[C@H](CCC(=O)O)C(=O)N[C@H](Cc1c[nH]c2ccccc12)C(=O)N[C@@H](C(=O)N[C@H](Cc1c[nH]c2ccccc12)C(=O)N[C@H](CCC(N)=O)C(=O)N[C@H](CCCCN)C(=O)N[C@H](CC(C)C)C(=O)N[C@H](CCCCN)C(=O)N[C@H](CCCCN)C(=O)N[C@@H](C(=O)N[C@H](C)C(=O)NCC(=O)N[C@H](CC(C)C)C(N)=O)[C@H](C)CC)C(C)C)[C@H](C)O)C(C)C)C(C)C)C(C)C` [D-AucA, D-aureocin A53 (Met^1-Leu^51)] is “remained intact under all conditions tested”.
With `CC[C@H](C)[C@H](NC(=O)[C@H](Cc1ccc(O)cc1)NC(=O)[C@H](CCCCN)NC(=O)[C@H](CC(C)C)NC(=O)[C@H](Cc1ccccc1)NC(=O)[C@H](CC(N)=O)NC(=O)[C@H](CC(C)C)NC(=O)[C@H](Cc1c[nH]c2ccccc12)NC(=O)[C@H](CO)NC(=O)[C@@H](N)CCSC)C(=O)N[C@@H](C)C(=O)N[C@@H](CCCCN)C(=O)N[C@@H](Cc1ccc(O)cc1)C(=O)NCC(=O)N[C@@H](CCCCN)C(=O)N[C@@H](CCCCN)C(=O)N[C@@H](C)C(=O)N[C@H](C(=O)N[C@@H](CO)C(=O)N[C@@H](C)C(=O)N[C@@H](C)C(=O)N[C@@H](Cc1c[nH]c2ccccc12)C(=O)N[C@@H](CCCCN)C(=O)N[C@@H](Cc1ccc(O)cc1)C(=O)N[C@@H](CCCCN)C(=O)NCC(=O)N[C@@H](CCCCN)C(=O)N[C@H](C(=O)N[C@@H](CC(C)C)C(=O)N[C@@H](CCC(=O)O)C(=O)N[C@@H](Cc1c[nH]c2ccccc12)C(=O)N[C@@H](CC(C)C)C(=O)N[C@@H](CC(N)=O)C(=O)N[C@H](C(=O)NCC(=O)N1CCC[C@H]1C(=O)N[C@H](C(=O)N[C@@H](CC(C)C)C(=O)N[C@@H](CCC(=O)O)C(=O)N[C@@H](Cc1c[nH]c2ccccc12)C(=O)N[C@H](C(=O)N[C@@H](Cc1c[nH]c2ccccc12)C(=O)N[C@@H](CCC(N)=O)C(=O)N[C@@H](CCCCN)C(=O)N[C@@H](CC(C)C)C(=O)N[C@@H](CCCCN)C(=O)N[C@@H](CCCCN)C(=O)N[C@H](C(=O)N[C@@H](C)C(=O)NCC(=O)N[C@@H](CC(C)C)C(N)=O)[C@@H](C)CC)C(C)C)[C@@H](C)O)C(C)C)C(C)C)C(C)C` [L-AucA, L-aureocin A53 (Met^1-Leu^51)], on trypsin, the “Proteolytic stability on incubation with trypsin” value is “degraded”. Besides, on proteinase K, the “Proteolytic stability on incubation with proteinase K” value is given as “proteolytically resistant”. Further, the “Proteolytic stability on incubation with chymotrypsin” value on chymotrypsin is “only caused degradation of L-AucA when the enzyme:substrate ratio increased from 1:20 to 10:1”.
Take `CC[C@H](C)[C@H](NC(=O)CNC(=O)[C@H](CC(C)C)NC(=O)[C@@H](NC(=O)[C@H](CCC(N)=O)NC(=O)[C@H](CCCCN)NC(=O)[C@@H](NC(=O)[C@H](CCCCN)NC(=O)[C@H](CO)NC(=O)[C@@H](NC(=O)[C@@H](NC(=O)[C@H](Cc1c[nH]c2ccccc12)NC(=O)[C@H](CC(=O)O)NC(=O)[C@@H](NC(=O)[C@H](C)NC(=O)[C@H](CCC(N)=O)NC(=O)CNC(=O)[C@H](C)NC(=O)[C@H](CC(N)=O)NC(=O)[C@H](CC(C)C)NC(=O)[C@H](Cc1c[nH]c2ccccc12)NC(=O)[C@H](CC(=O)O)NC(=O)[C@H](CC(C)C)NC(=O)[C@@H](NC(=O)[C@H](CCCCN)NC(=O)CNC(=O)[C@H](CCCCN)NC(=O)[C@H](CC(N)=O)NC(=O)[C@H](C)NC(=O)[C@H](Cc1c[nH]c2ccccc12)NC(=O)[C@H](C)NC(=O)[C@H](Cc1c[nH]c2ccccc12)NC(=O)[C@H](CCC(N)=O)NC(=O)[C@@H](NC(=O)[C@H](C)NC(=O)[C@H](CCCCN)NC(=O)[C@H](CO)NC(=O)CNC(=O)[C@H](Cc1ccc(O)cc1)NC(=O)[C@H](CCCCN)NC(=O)[C@H](C)NC(=O)[C@H](CC(C)C)NC(=O)[C@H](CC(C)C)NC(=O)[C@H](CCC(N)=O)NC(=O)[C@@H](NC(=O)[C@@H](NC(=O)[C@H](CCCCN)NC(=O)[C@H](CC(C)C)NC(=O)[C@H](Cc1ccccc1)NC(=O)CNC(=O)[C@H](C)NC(=O)[C@@H](N)CCSC)C(C)C)C(C)C)C(C)C)[C@@H](C)CC)[C@@H](C)CC)C(C)C)C(C)C)[C@@H](C)CC)[C@@H](C)CC)C(=O)N[C@@H](CCCCN)C(N)=O` [L-LnqQ, L-lacticin Q (Met^1-Lys^53)]: in the data set on trypsin or chymotrypsin, the “Proteolytic stability of bacteriocin enantiomers (all protease conditions tested)” value is on record as “more sensitive to proteolytic degradation”.
